Reference: ChEMBL document CHEMBL1148376, “Synthesis, monoamine transporter binding properties, and behavioral pharmacology of a series of 3beta-(substituted phenyl)-2beta-(3'-substituted isoxazol-5-yl)tropanes” (J Med Chem, 2004)

By UniProt entry, the sequences of proteins in these tests, tags left out.
UniProt P31652, whole entry: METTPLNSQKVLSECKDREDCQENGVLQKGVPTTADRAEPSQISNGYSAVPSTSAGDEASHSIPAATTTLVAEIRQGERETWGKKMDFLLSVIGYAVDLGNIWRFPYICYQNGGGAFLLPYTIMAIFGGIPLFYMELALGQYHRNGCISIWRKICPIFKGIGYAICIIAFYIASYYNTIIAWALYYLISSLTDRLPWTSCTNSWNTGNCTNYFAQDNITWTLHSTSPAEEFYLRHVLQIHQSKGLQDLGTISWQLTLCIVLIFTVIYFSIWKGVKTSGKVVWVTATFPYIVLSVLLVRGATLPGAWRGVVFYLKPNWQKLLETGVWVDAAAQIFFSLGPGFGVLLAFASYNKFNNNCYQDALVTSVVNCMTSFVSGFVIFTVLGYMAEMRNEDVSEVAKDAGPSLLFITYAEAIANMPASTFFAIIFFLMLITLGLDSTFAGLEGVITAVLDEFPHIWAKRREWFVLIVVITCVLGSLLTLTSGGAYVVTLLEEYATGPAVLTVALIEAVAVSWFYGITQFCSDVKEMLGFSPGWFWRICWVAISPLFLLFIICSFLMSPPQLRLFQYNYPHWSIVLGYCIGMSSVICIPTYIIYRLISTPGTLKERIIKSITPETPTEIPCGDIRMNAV

Biological target: Sodium-dependent serotonin transporter (Rattus norvegicus, UniProt P31652)
Assay: Binding affinity towards serotonin transporter 5-HTT was determined using [3H]paroxetine radioligand.
Method in brief: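 Competition binding at the 5-HTT with 0.2 nM [3H]paroxetine (final concentration). Other procedures follow earlier published methods.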

In the case of COC(=O)[C@@H]1C2CC[C@H](C[C@@H]1c1ccccc1)N2C, the Ki is reported as 182 nM.
Work on COC(=O)[C@@H]1C2CC[C@@H](C[C@@H]1OC(=O)c1ccccc1)N2C (single isomer, unassigned) [COCAINE] yielded a Ki of 45 nM.
